## Ab-91 heavy chain CDR variants: yeast mating affinities

The measurements come from Engelhart et al. 2022 (doi:10.1038/s41597-022-01779-4) through the FLAb antibody collection.

All variants were tested on one target, the spike HR2 peptide PDVDLGDISGINAS (SARS-CoV-2).

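AAYL51 was designed without a model: most single CDR substitutions and a random sample of double and triple ones. In AlphaSeq, yeast of one mating type display the scFv and yeast of the other type display the target. Pairs that bind mate more often; barcode pairs of the diploids are counted by sequencing. The ratio of observed to expected reads was calibrated, replicate by replicate, on BCL2-family standards whose Kd was known from biolayer interferometry. Each pool was mated in three replicate cultures.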

Parent scFv Ab-91: VL joined to VH by the linker GGGGSGGGGSGGGGS. Changes lie in the heavy chain CDRs alone.
VL: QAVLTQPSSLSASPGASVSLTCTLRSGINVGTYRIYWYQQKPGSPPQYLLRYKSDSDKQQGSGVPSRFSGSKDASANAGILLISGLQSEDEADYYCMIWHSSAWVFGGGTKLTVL
VH: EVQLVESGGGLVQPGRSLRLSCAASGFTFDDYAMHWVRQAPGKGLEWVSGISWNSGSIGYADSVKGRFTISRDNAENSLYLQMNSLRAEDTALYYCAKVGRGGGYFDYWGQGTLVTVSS

Each variant is given by its three heavy chain CDRs, as the data file delimits them; those of the parent are GFTFDDYAMH, GISWNSGSIGYADSVK, VGRGGGYFDY.
Affinities are written as log10 Kd with Kd in nM; a lower number is a better binder.
Replicates are averaged; those with no signal do not enter the mean.
An entry "ND" has no value in the source: the pair was not observed among the diploids in that replicate. This suggests poor binding but is not conclusive.
Parent in this assay: reference entry 1.86, copy in this library 0.88.
Background: pairings of library AAYL51 with three empty control strains gave a value in 21% of cases (median 4.54, 5th percentile 3.26). Values in that range, when seen in few replicates, are hard to tell from nonspecific mating. The control count says in how many pairings with the empty strains this scFv gave a signal, with their mean in brackets.

CDR-H1,CDR-H2,CDR-H3,"log10 Kd, replicates",mean log10 Kd (nM),control signals
GFTFGFYAMH,GISWNSGSIGYASSVK,VGRGGGYFDY,1.86 2.06 1.72,1.88,4 of 9 (4.26)
GFTFDDYAMH,GISWNSGTIGYADSTK,VGHGGGYFDY,ND ND ND,ND,2 of 9 (3.74)
GFTGDDYAMH,GRSWNSGIIGYADSVK,VGRGGGYFDY,5.36 ND 4.16,4.76,0 of 9
GLTFDDYAMH,GISWNSGSIGYAVSTK,VGRGGGYFDY,ND ND ND,ND,1 of 9 (3.66)
GMTFDDRAMH,GIYWNSGSIGYADSVK,VGRGGGYFDY,4.95 6.10 5.29,5.45,7 of 9 (4.85)
GFTFDDYAMH,GISWNSGSIGYLDSVK,VGRSGIYFDY,ND ND ND,ND,2 of 9 (2.34)
GFTFDDYAMH,GISWNSDSIPYADSVK,VGRGGGYFDY,5.69 ND ND,5.69,1 of 9 (3.25)
GFTFDDYAMH,GGSWRSGSIGYADSVK,VGRGGRYFDY,4.08 ND ND,4.08,3 of 9 (4.79)
GFTFDDYAMH,GISWNSGSIGHADSVK,FGRGGGYFVY,ND 5.11 4.33,4.72,0 of 9
GFTFDDPAMH,GISWNSGSIGYADSVK,VGRGGGYFWT,ND ND 4.37,4.37,2 of 9 (4.18)
GFTFDDRAMH,GISWNSGSIGMADSVK,VGRGGGYFHY,ND ND ND,ND,2 of 9 (5.04)
GFTFDDYARH,GISGNSGSIGYADSVK,VGRGGMYFDY,5.41 5.29 3.84,4.85,4 of 9 (4.86)
GFTFDDYAMM,GITWNSGSNGYADSVK,VGRGGGYFDY,ND ND 3.88,3.88,2 of 9 (4.47)
GFTFDDYAMH,GISWNSGSIGNADSVN,VGRGGGYFGY,ND 6.21 2.91,4.56,2 of 9 (3.98)
GFTKDDYAMH,GISWNSGSIMYADSVK,VGRGGGYFDA,ND 4.44 ND,4.44,1 of 9 (3.47)
GFTFDDYAMH,GIIWNSGSIGYADSVK,VGSGGGYFDY,ND ND ND,ND,1 of 9 (4.59)
GFTFDDYAMH,GISWNSGSIGQADSVK,VGRGGGPFDY,ND ND ND,ND,0 of 9
GFTFDDYAMH,GNSWNSGSIGYADSVK,VGRGGGLFDY,4.42 4.22 ND,4.32,2 of 9 (4.33)
GFTFDDYAMH,GISWNGGSIGYADSVK,VGRQGGYFDP,ND ND ND,ND,1 of 9 (4.61)
GFTFDDYAMH,GINWNSGSWGYADSVK,VGRGGGYFNY,ND ND ND,ND,0 of 9
GFAFDDYAMH,GISWNSGSIGYADSVK,RGRGGGYFDY,ND ND ND,ND,2 of 9 (3.56)
GFTFDDYAMH,GISWQSGSIGYADSVK,VGRGGALFDY,2.79 2.47 2.91,2.72,2 of 9 (3.69)
GFTFDDYAMH,GISWNSGSIGYAYSVK,VGRGGGYFDY,2.85 2.41 2.11,2.46,0 of 9
GFTFDDYAMH,GISWNSGSIEYADSVK,RGRGGGYFDY,ND 5.12 ND,5.12,3 of 9 (3.65)
GFLFDDYAMH,GISWNSGSIGYADSVA,VGRGGSYFDY,3.91 ND ND,3.91,0 of 9
GFTFDDYAMH,GISVNSASIGYADSVN,VGRGGGYFDY,ND ND ND,ND,0 of 9
GFTFDDYCMH,GISWNSGSIGYADSVK,WHRGGGYFDY,ND ND ND,ND,0 of 9
AFTFDDYAMD,GISWNSGEIGYADSVK,VGRGGGYFDY,1.24 1.15 0.72,1.04,0 of 9
GFTFDDYAMH,GISVNSESIGYADSVK,VGRGDGYFDY,4.57 ND ND,4.57,0 of 9
GFTFDDYAMH,GISWNSGSIYYADSVK,VGRGVGWFDY,3.73 ND ND,3.73,2 of 9 (3.13)
GFTFDKYAMM,GISWNSGSIGYADSVK,VGRGGGPFDY,ND 4.13 5.23,4.68,2 of 9 (3.96)
GFTFDDYAMH,GISWNSGSIGPADEVK,VGRGGGYFDH,5.44 5.68 ND,5.56,5 of 9 (4.77)
GFTFDVYAMH,GQSWNSTSIGYADSVK,VGRGGGYFDY,ND ND ND,ND,1 of 9 (3.54)
GFTTDDYAMH,GISWNSGSIGYADSVK,VGRGGGYFGL,2.18 1.99 3.07,2.41,1 of 9 (3.04)
GFTFDDYAHH,GISWNPGSIGYADSVK,VGMGGGYFDY,ND ND ND,ND,1 of 9 (3.29)
GFTFDDYCMH,GINWNSGSIGYADSRK,VGRGGGYFDY,ND ND ND,ND,1 of 9 (3.90)
GFTVDDYAMH,GGSWNSGSIGYADSVK,VGRGGGSFDY,ND ND ND,ND,0 of 9
GFTFDDYAMH,GYSWNSGSRGYADHVK,VGRGGGYFDY,ND ND ND,ND,0 of 9
GFTFDDEAMH,GVSWNSGSIGYAISVK,VGRGGGYFDY,ND ND ND,ND,1 of 9 (3.42)
GFAFDDYAMH,GISWNSNSIGYADSVK,VGRGGGYFDN,ND ND ND,ND,1 of 9 (3.25)

From the list, the first 4 with no signal in any replicate:

CDR-H1,CDR-H2,CDR-H3,"log10 Kd, replicates",mean log10 Kd (nM),control signals
GFTFDDYAMH,GISWNSGTIGYADSTK,VGHGGGYFDY,ND ND ND,ND,2 of 9 (3.74)
GLTFDDYAMH,GISWNSGSIGYAVSTK,VGRGGGYFDY,ND ND ND,ND,1 of 9 (3.66)
GFTFDDYAMH,GISWNSGSIGYLDSVK,VGRSGIYFDY,ND ND ND,ND,2 of 9 (2.34)
GFTFDDRAMH,GISWNSGSIGMADSVK,VGRGGGYFHY,ND ND ND,ND,2 of 9 (5.04)